{
  "source": "patent US10226471B2",
  "about": "“Modified-release dosage forms of 5-HT2C agonists useful for weight management” (Arena Pharmaceuticals, Inc., priority 2010, dated 2019)",
  "assay": "Phase 3 clinical trials of lorcaserin for weight management",
  "details": "pivotal phase 3 clinical trial program, treated for up to two years",
  "data": [
    {"smiles": "C[C@H]1CNCCc2ccc(Cl)cc21", "note": "[Compound 1]", "values": [
      {"measurement": "patients achieved at least 5% weight loss", "result": "About two-thirds"}
    ]}
  ]
}
